Only a part is listed here, and it is no random draw. Some results for these compounds are left out of this collection, so the calls shown say nothing about other tests. Active and inactive are the calls of the source. Calls come from the whole dose curve; as a rule, active = well fitted inhibition curve with a large enough effect; inconclusive = small, poorly fitted or top-dose-only effect, or effect the other way; inactive = flat fitted curve, though single readings scatter.

Protein sequences, listed by entry. Tags and fused reporters are not part of them.
UniProt O75604, whole entry: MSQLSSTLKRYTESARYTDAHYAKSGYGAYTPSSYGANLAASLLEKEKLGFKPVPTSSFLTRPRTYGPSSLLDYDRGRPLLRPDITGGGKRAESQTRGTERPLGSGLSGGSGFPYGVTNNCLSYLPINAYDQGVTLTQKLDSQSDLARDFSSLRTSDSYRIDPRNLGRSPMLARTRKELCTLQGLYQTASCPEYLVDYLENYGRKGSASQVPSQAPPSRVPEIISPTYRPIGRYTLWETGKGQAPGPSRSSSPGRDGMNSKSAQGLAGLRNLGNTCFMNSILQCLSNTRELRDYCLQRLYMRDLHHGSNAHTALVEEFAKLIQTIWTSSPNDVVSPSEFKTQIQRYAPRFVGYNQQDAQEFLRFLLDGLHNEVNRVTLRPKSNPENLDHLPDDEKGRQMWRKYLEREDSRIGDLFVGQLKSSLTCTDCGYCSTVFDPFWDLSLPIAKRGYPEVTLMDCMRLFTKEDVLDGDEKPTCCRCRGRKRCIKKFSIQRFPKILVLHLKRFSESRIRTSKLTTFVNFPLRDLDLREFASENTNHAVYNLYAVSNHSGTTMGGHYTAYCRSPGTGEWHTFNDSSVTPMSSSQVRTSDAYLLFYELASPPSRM

In the assay the target is Ubiquitin carboxyl-terminal hydrolase 2 (Homo sapiens) (UniProt O75604). Briefly: qHTS Assay for Inhibitors of Ubiquitin-specific Protease USP2a Using CHOP2 as the Reporter. The note with it: USP2 core, Ub-CHOP2 coupled fluorogenic reporter, 485/531; at 38.3 µM (top of the series). An excerpt:
NIH Molecular Libraries Screening Centers Network [MLSCN] NIH Chemical Genomics Center [NCGC] MLSCN Grant: XO1-MH079852-01 PI Name: Nicholson, Ben. Progenra Inc, Malvern, PA NCGC Assay Overview: Homeostasis of cellular proteins is maintained through a combination of synthesis and degradation. The pathway that accounts for the majority of protein degradation is the ubiquitin-proteasomal pathway. Ubiquitin (Ub) is highly conserved in all cells and the generation of a multi-Ub chain typically targets proteins for degradation by the proteasome. However, ubiquitination is highly reversible and dynamic. Deubiquitination, the reverse process, is catalyzed through the action of enzymes referred to as isopeptidases or deubiquitinating enzymes (DUBs). This group of enzymes is collectively responsible for maintaining adequate pools of free ubiquitin and regulating the ubiquitination status of cellular proteins. The class of DUBs referred to as the ubiquitin-specific proteases (USP) family functions endoproteolytically to cleave Ub chains from a wide range of protein substrates. USP2a deubiquitinates fatty acid synthase (FASN) which has recently been identified as an emerging oncology target. To identify inhibitors of USP2a a cell-free assay was employed. […] The reporter enzyme chosen is an enterokinase called CHOP2, which is activated when the Ub is cleaved by USP2. The free and now activated reporter can subsequently act on its reporter substrate. Thus, this coupled assay gives a fluorescent read-out at excitation/emission wavelengths of 485/531. The assay was developed by Progenra, Inc. and has been licensed for sale by LifeSensors, Inc. as Ub-CHOP2-Reporter-Kit (#PR1101).
NCGC Assay Protocol Summary: The assay buffer, prepared fresh at the day of the assay, contains 20mM Tris-HCl pH 8.0, 2mM CaCl2, 2mM beta-Mercaptoethanol, 0.05% CHAPS. 3ul of 20nM (10nM final) USP2 core, which is stored on ice, is dispensed into a medium-binding black solid Kalypsys 1,536 well plate using the Kalypsys dispenser. The assay plate is then pinned with 23nL compound with the Kalypsys pintool in columns 5-48. The controls are pinned as follows: column 1 two-fold dilutions of 2M NEM in duplicate; column 2 2M NEM (final concentration 38.2mM); column 3&4 DMSO. The assay plate is incubated at RT for 30min. Subsequently, 1.5uL of 100nM (25nM final) Ub-CHOP2 and 1.5uL of 100nM (25nM final) Reporter Substrate (both stored on ice and protected from light) were dispensed into the plate using the Kalypsys dispenser. Plates were read after 60min RT incubation on a ViewLux (Perkin Elmer) plate reader using the following wavelengths Ex 485nm /Em 531nm. Data were normalized to the to AC100 inhibition (NEM). Concentration-response curves were fitted to the normalized data and the concentration-response curves were then classified based on curve quality (r2), response magnitude and degree of measured activity. The time zero reading was used to flag fluorescence artifacts. Keywords: ubiquitination, deubiquitination, proteases, profluorescent, MLSMR, MLPCN, NIH Roadmap, qHTS, NCGC
(In general: In qHTS, concentration-response curves come from the screen itself.)
For `CN1[C@@H]2CC[C@H]1CC(OC(=O)C(O)(c1ccccc1)c1ccccc1)C2` (some centres undefined), the activity change, negative = inhibition is inactive: 3.25%.

`O=C(NCC1(N2CCCCC2)CCCCC1)c1cc([N+](=O)[O-])ccc1Cl`: the activity change, negative = inhibition was inactive: -11.5%.

`Cc1ccc(C(=O)NCC2(N3CCCCC3)CCCCC2)cc1`: the activity change, negative = inhibition is inactive: 3.57%.

`COc1cc(SC)ccc1C(=O)NCC1(N(C)C)CCCCC1`: the activity change, negative = inhibition is inactive: 3.56%.

`CCN(CC)CC(C)C(C)OC(=O)C(O)(c1ccccc1)c1ccccc1` (centres undefined): the activity change, negative = inhibition was inactive: 0.854%.

Turning to `CC(C)N1C(=O)CC2(CCN(CCOC(=O)C(O)(c3ccccc3)c3ccccc3)CC2)C1=O`, the activity change, negative = inhibition is inactive: 4.49%.

`CN(C)c1ccc(C(=O)NCC2(N(C)C)CCCCC2)cc1`: the activity change, negative = inhibition is inactive: 0.385%.

`CN(C)C1CCCC1OC(=O)C(O)(c1ccccc1)c1ccccc1` (centres undefined): the activity change, negative = inhibition is inactive: -1.78%.

Take `Cc1ccccc1C(=O)NCC1(N2CCCCC2)CCCCC1`: the activity change, negative = inhibition was inactive: 2.86%.

As to `COc1ccc(C(=O)NCC2(N(C)C)CCCCC2)cc1`, the activity change, negative = inhibition is inactive: 2.98%.

On to `O=C(NCC1(N2CCCCC2)CCCCC1)c1cccc(Br)c1`, for which the activity change, negative = inhibition was inactive: 0.789%.

`CCN1CCCC(OC(=O)C2(O)c3ccccc3C=Cc3ccccc32)C1` (centres undefined): the activity change, negative = inhibition is inactive: 1.42%.

On to `Cc1cc(C(=O)NCC2(N3CCCCC3)CCCCC2)ccc1[N+](=O)[O-]`, for which the activity change, negative = inhibition is inactive: -0.282%.

As to `O=C(NCC1(N2CCCCC2)CCCCC1)c1cc(F)c(F)cc1Cl`, the activity change, negative = inhibition is inactive: 1.36%.

For the compound `C=CCN1CCN(CCOC(=O)C(O)(c2ccccc2)c2ccccc2)CC1`, the activity change, negative = inhibition is inactive: 2.43%.

As for `COc1cc(C(=O)NCC2(N(C)C)CCCCC2)c([N+](=O)[O-])cc1OC`, the activity change, negative = inhibition was inactive: -1.2%.

With `CN(C)C1(CNC(=O)c2ccc(Br)cc2)CCCCC1`, the activity change, negative = inhibition is inactive: 3.28%.

As for `O=C(NCC1(N2CCCCC2)CCCCC1)c1cccc(Cl)c1`, the activity change, negative = inhibition was inactive: 2.91%.

On to `COc1ccc(Cl)cc1C(=O)NCC1(N(C)C)CCCCC1`, for which the activity change, negative = inhibition was inactive: 1.3%.

Consider `COc1cccc(C(=O)NCC2(N3CCCCC3)CCCCC2)c1`, for which the activity change, negative = inhibition is inactive: 1.46%.

In the case of `O=C(OC1CN2CCC1CC2)C(CO)(c1ccccc1)c1ccccc1` (centres undefined), the activity change, negative = inhibition was inactive: 0.217%.

As to `CC(C)Oc1ccc(C(=O)NCC2(N(C)C)CCCCC2)cc1`, the activity change, negative = inhibition is inactive: 7.05%.

In the case of `CN(C)c1cccc(C(=O)NCC2(N(C)C)CCCCC2)c1`, the activity change, negative = inhibition was inactive: 2.39%.

Consider `COc1ccc(Br)c(C(=O)NCC2(N3CCCCC3)CCCCC2)c1`, for which the activity change, negative = inhibition is inactive: -6.12%.

The values above are taken from PubChem BioAssay AID463254 (National Center for Advancing Translational Sciences (NCATS), 2010).
